Assay results: patent US11628160B2, “Compositions and methods for treating brain injury” (Azevan Pharmaceuticals, Inc., priority 2017, dated 2023)

Sequences of proteins named here, by UniProt entry; tags and fusion partners are left off.
UniProt P37288, whole entry: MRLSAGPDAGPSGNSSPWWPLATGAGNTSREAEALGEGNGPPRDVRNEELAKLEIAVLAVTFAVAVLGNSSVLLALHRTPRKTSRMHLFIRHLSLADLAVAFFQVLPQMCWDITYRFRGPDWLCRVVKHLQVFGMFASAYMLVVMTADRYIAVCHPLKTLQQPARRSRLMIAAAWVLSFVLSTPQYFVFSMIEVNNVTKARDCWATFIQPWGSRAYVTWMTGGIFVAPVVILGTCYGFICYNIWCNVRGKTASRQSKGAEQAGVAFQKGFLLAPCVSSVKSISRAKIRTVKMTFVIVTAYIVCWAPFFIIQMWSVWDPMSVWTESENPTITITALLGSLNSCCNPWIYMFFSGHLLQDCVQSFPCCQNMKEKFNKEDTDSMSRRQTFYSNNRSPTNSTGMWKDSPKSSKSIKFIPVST

Target: human V1a receptor (Homo sapiens, UniProt P37288)
Assay: Human vasopressin V1a receptor binding assay
Settings: read-out: V1a Ki; hV1a CHO cell line, competition with 1 nM 3H-AVP

Ki: 1.36 nM
SMILES: CN(Cc1cccc(C(F)(F)F)c1)C(=O)[C@@H](CC(=O)N1CCC(N2CCCCC2)CC1)N1C(=O)[C@@H](N2C(=O)OC[C@@H]2c2ccccc2)[C@H]1/C=C/c1ccccc1 [Example 225, 2(R)-[[4-(Piperidinyl)piperidinyl]carbonylmethyl]-2-[3(S)-(4(S)-phenyloxazolidin-2-on-3-yl)-4(R)-(2-styryl)azetidin-2-on-1-yl]acetic acid N-methyl-N-(3-trifluoromethylbenzyl)amide]
